Like-named read-outs stand apart in the source and are kept apart here.
Experiments:
[1] = room temperature

| SMILES | thermodynamic stability of the crystal modification ([1]; listed as modification I) | stability on storage after processing by means of suspensions | thermodynamic stability of the crystal modification [1] |
| --- | --- | --- | --- |
| O=C(O)CCn1c2c(c3ccccc31)C[C@H](NS(=O)(=O)c1ccc(F)cc1)CC2 [Mod. I, (R)-3-[[(4-fluorophenyl)sulphonyl]amino]-1,2,3,4-tetrahydro-9H-carbazole-9-propanoic acid] | thermodynamically stable | stable on storage |  |
| O=C(O)CCn1c2c(c3ccccc31)C[C@H](NS(=O)(=O)c1ccc(F)cc1)CC2 [Mod. II, (R)-3-[[(4-fluorophenyl)sulphonyl]amino]-1,2,3,4-tetrahydro-9H-carbazole-9-propanoic acid, reference compound] |  |  | metastable |

— patent US6362214B1 (Bayer Yakuhin, Ltd., priority 1997, dated 2002)
